{"source": "ChEMBL document CHEMBL5727219", "about": "“Kinase inhibitors and method of treating cancer” (2019)", "assay": "Inhibition Assay: PLK3 inhibition was determined using the Z-Lyte assay kit from Invitrogen (cat #PV3802). The assay was performed using the recommended manufacturer's instructions with 100 μM ATP and 21 nM PLK3 (Invitrogen cat #PV3812). The % inhibition values were determined according to the manufacturer's directions and IC50 values were obtained using a non-linear 4 point logistic curve fit (XLfit4, IDBS).", "data": [{"smiles": "COc1ccc2c(c1)[C@]1(C[C@H]1c1ccc3c(C#Cc4ccc(CN5CCOCC5)cc4)n[nH]c3c1)C(=O)N2", "values": [{"measurement": "IC50", "value": "in the range around 550 nM"}]}]}
